Assay results as given in PubChem BioAssay AID624258 (Broad Institute, 2012).

System: S. cerevisiae SKN7-toxicity growth rescue, plate reader
Assay: Yeast SKN7 toxicity growth rescue counterscreen, Saccharomyces cerevisiae, plate reader, dose confirmatory (AID 624258);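 further: growth read after three days of incubation at 30 °C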

## CC(=O)OC1C(=O)OCC23CCC4(C)OC4C2OC2CC(OC(=O)C=CC=CC(=O)OCCC1C)C3(C)C21CO1 (stereo unspecified)
  AC40: 7.24 µM
